What was measured:
Assay in all cases: Ba/F3 cell viability, Cell Titer Glo
EGFR L833V = EGFR L833V (Homo sapiens, UniProt P00533, L833V); settings: read-out: IC50 Values; Ba/F3 cells expressing EGFR L833V, 72 hours
EGFR Ex19del/T790M/L792H = EGFR Ex19del/T790M/L792H (Homo sapiens, UniProt P00533, DEL746-750/L792H/T790M); settings: read-out: IC50 Values; Ba/F3 cells expressing EGFR Ex19del/T790M/L792H, 72 hours
EGFR L858R/T790M/L718Q = EGFR L858R/T790M/L718Q (Homo sapiens, UniProt P00533, L718Q/L858R/T790M); settings: read-out: IC50 Values; Ba/F3 cells expressing EGFR L858R/T790M/L718Q, 72 hours
EGFR S768I/V769L = EGFR S768I/V769L (Homo sapiens, UniProt P00533, S768I/V769L); settings: read-out: IC50 Values; Ba/F3 cells expressing EGFR S768I/V769L, 72 hours
EGFR G724S T790M = EGFR G724S T790M (Homo sapiens, UniProt P00533, G724S/T790M); settings: read-out: IC50 Values; Ba/F3 cells expressing EGFR G724S T790M, 72 hours
EGFR Ex19del T790M C797S = EGFR Ex19del T790M C797S (Homo sapiens, UniProt P00533, C797S/DEL746-750/T790M); settings: read-out: IC50 Values; Ba/F3 cells expressing EGFR Ex19del T790M C797S, 72 hours
EGFR L858R/L718V = EGFR L858R/L718V (Homo sapiens, UniProt P00533, L718V/L858R); settings: read-out: IC50 Values; Ba/F3 cells expressing EGFR L858R/L718V, 72 hours
EGFR V774M = EGFR V774M (Homo sapiens, UniProt P00533, V774M); settings: read-out: IC50 Values; Ba/F3 cells expressing EGFR V774M, 72 hours
EGFR S768I/T790M = EGFR S768I/T790M (Homo sapiens, UniProt P00533, S768I/T790M); settings: read-out: IC50 Values; Ba/F3 cells expressing EGFR S768I/T790M, 72 hours
EGFR S768I V774M = EGFR S768I V774M (Homo sapiens, UniProt P00533, S768I/V774M); settings: read-out: IC50 Values; Ba/F3 cells expressing EGFR S768I V774M, 72 hours
EGFR L858R T790M V843I = EGFR L858R T790M V843I (Homo sapiens, UniProt P00533, L858R/T790M/V843I); settings: read-out: IC50 Values; Ba/F3 cells expressing EGFR L858R T790M V843I, 72 hours
EGFR L858R/V834L = EGFR L858R/V834L (Homo sapiens, UniProt P00533, L858R/V834L); settings: read-out: IC50 Values; Ba/F3 cells expressing EGFR L858R/V834L, 72 hours
EGFR Ex19del/L792H = EGFR Ex19del/L792H (Homo sapiens, UniProt P00533, DEL746-750/L792H); settings: read-out: IC50 Values; Ba/F3 cells expressing EGFR Ex19del/L792H, 72 hours
EGFR S768I = EGFR S768I (Homo sapiens, UniProt P00533, S768I); settings: read-out: IC50 Values; Ba/F3 cells expressing EGFR S768I, 72 hours
EGFR R776H = EGFR R776H (Homo sapiens, UniProt P00533, R776H); settings: read-out: IC50 Values; Ba/F3 cells expressing EGFR R776H, 72 hours
EGFR Ex19del/T790M/G724S = EGFR Ex19del/T790M/G724S (Homo sapiens, UniProt P00533, DEL746-750/G724S/T790M); settings: read-out: IC50 Values; Ba/F3 cells expressing EGFR Ex19del/T790M/G724S, 72 hours
EGFR L858R T790M/C797S = EGFR L858R T790M/C797S (Homo sapiens, UniProt P00533, C797S/L858R/T790M); settings: read-out: IC50 Values; Ba/F3 cells expressing EGFR L858R T790M/C797S, 72 hours
EGFR L858R/T790M = EGFR L858R/T790M (Homo sapiens, UniProt P00533, L858R/T790M); settings: read-out: IC50 Values; Ba/F3 cells expressing EGFR L858R/T790M, 72 hours
EGFR Ex19del L718V = EGFR Ex19del L718V (Homo sapiens, UniProt P00533, DEL746-750/L718V); settings: read-out: IC50 Values; Ba/F3 cells expressing EGFR Ex19del L718V, 72 hours

Sequences of proteins named here, by UniProt entry; tags and fusion partners are left off. A line that says so, or that is headed by a name, gives the form on record, which may keep a tag or linker. Residues count along the entry.
UniProt P00533, 25-1210 L833V: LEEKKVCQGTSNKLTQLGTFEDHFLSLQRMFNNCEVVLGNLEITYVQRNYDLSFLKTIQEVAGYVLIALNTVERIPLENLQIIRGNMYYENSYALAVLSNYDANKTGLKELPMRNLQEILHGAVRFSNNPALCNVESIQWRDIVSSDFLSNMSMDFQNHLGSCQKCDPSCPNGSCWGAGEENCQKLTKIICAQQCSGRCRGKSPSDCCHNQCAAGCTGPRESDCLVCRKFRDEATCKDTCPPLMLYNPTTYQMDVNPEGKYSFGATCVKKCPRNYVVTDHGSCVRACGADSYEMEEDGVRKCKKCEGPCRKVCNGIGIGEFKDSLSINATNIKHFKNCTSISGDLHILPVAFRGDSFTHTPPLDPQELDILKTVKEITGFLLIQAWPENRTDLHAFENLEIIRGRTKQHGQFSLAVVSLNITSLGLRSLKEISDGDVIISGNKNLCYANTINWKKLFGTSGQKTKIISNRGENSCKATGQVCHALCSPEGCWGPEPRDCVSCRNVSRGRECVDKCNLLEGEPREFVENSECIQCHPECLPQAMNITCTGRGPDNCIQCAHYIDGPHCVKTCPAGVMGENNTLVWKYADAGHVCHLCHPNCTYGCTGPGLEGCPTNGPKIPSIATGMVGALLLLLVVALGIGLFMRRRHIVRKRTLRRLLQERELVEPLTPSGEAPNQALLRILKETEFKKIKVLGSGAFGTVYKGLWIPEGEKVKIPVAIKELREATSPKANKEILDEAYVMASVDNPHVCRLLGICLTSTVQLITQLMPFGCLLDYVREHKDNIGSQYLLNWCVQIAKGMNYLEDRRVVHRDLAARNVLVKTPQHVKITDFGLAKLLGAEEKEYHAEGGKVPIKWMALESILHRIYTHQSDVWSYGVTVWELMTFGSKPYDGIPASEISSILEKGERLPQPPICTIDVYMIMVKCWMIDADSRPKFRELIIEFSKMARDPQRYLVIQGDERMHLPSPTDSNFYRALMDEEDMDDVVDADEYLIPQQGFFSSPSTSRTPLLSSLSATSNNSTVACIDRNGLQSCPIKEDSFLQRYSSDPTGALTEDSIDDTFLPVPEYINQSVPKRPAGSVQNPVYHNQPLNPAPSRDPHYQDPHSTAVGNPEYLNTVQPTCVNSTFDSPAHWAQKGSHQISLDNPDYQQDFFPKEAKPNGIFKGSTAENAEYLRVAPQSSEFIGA
UniProt P00533, with tags, fused parts or gaps DEL746-750/T790M/L792H: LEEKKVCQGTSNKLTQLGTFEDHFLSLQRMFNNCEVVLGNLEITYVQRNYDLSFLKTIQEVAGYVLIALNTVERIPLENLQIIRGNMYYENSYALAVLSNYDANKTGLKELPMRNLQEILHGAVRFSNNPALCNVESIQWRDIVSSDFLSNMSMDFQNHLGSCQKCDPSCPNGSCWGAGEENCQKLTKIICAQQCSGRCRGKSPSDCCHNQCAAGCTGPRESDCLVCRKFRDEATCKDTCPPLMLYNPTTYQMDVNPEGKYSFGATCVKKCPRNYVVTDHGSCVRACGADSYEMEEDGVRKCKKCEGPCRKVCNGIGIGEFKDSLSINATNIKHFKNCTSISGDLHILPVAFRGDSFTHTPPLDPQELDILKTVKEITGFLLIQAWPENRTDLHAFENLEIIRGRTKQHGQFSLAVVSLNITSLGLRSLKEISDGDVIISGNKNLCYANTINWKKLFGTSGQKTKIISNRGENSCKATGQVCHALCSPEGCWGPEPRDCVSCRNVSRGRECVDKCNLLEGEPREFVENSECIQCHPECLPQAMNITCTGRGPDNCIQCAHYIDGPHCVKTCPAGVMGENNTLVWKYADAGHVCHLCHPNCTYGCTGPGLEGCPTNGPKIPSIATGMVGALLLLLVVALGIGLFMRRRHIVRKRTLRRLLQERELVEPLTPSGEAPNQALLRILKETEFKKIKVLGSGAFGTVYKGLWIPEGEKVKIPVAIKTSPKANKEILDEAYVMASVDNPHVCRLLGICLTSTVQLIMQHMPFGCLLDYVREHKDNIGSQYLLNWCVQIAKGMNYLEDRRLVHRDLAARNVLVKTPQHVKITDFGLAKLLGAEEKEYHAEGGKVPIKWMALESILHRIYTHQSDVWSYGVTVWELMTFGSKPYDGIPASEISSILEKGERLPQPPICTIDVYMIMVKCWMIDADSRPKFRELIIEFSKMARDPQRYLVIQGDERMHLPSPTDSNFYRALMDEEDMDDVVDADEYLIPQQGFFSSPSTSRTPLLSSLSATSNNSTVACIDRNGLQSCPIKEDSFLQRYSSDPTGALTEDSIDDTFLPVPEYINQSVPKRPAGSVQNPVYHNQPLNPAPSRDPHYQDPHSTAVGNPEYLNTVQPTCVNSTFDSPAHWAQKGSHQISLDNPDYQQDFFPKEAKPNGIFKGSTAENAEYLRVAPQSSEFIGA
UniProt P00533, 25-1210 L718Q/T790M/L858R: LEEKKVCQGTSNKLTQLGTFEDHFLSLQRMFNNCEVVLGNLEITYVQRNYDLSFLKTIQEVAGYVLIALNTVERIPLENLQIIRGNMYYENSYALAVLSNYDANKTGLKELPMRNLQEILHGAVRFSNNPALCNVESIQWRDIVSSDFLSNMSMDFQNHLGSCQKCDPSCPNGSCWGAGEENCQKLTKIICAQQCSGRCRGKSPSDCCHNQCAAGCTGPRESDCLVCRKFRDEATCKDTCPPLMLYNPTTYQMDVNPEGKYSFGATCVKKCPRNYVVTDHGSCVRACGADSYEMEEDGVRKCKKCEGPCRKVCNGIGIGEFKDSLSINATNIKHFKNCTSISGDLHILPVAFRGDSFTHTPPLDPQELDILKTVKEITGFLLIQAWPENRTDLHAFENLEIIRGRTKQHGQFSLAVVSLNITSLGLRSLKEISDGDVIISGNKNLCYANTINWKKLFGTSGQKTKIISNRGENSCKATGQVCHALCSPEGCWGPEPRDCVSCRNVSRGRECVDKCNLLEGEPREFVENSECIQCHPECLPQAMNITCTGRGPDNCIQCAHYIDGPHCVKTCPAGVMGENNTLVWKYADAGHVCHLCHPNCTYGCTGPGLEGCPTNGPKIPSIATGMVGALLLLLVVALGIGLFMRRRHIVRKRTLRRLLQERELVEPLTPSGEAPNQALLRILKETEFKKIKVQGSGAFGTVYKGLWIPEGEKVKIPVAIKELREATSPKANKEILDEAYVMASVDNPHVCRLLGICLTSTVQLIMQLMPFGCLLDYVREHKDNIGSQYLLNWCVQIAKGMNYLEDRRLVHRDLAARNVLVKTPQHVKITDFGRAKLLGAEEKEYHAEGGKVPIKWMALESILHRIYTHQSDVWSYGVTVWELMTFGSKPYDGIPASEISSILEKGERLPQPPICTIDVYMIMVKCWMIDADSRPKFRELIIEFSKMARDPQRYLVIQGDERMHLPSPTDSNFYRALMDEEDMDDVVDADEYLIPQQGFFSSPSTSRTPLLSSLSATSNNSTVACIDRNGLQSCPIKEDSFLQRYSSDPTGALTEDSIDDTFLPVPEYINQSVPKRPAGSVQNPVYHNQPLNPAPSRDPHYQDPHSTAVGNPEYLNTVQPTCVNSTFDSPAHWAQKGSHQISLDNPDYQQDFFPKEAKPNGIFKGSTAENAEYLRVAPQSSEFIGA
UniProt P00533, 25-1210 S768I/V769L: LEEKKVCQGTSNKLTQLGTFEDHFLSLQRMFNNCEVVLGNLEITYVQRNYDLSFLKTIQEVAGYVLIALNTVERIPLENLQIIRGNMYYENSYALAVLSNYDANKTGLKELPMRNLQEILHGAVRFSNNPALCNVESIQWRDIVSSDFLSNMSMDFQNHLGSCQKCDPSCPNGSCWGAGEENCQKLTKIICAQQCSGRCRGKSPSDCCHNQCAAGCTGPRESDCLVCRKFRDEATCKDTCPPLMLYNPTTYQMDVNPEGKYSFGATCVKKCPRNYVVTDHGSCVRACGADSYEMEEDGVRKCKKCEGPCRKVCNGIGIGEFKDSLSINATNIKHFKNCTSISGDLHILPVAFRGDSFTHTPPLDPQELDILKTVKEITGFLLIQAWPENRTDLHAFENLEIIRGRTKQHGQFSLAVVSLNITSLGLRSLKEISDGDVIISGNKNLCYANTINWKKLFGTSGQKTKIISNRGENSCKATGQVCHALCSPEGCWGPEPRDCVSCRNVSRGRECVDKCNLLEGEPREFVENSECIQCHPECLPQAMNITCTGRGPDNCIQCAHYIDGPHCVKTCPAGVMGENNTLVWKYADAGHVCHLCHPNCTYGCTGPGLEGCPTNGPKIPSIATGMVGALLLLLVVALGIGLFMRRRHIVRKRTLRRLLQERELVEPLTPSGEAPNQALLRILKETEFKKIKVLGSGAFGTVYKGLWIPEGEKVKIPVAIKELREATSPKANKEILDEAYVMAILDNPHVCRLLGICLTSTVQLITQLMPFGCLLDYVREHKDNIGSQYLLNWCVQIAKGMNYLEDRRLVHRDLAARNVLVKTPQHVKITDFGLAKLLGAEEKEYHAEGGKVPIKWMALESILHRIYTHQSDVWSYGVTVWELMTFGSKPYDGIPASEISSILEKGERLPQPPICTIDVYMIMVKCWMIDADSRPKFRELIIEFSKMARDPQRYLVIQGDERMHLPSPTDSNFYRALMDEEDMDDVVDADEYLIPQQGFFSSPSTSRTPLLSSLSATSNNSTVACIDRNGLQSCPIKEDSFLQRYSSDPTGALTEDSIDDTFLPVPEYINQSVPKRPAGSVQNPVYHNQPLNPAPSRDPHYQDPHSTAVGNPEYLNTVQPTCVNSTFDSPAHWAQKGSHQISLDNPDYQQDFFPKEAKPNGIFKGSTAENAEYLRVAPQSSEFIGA
UniProt P00533, 25-1210 G724S/T790M: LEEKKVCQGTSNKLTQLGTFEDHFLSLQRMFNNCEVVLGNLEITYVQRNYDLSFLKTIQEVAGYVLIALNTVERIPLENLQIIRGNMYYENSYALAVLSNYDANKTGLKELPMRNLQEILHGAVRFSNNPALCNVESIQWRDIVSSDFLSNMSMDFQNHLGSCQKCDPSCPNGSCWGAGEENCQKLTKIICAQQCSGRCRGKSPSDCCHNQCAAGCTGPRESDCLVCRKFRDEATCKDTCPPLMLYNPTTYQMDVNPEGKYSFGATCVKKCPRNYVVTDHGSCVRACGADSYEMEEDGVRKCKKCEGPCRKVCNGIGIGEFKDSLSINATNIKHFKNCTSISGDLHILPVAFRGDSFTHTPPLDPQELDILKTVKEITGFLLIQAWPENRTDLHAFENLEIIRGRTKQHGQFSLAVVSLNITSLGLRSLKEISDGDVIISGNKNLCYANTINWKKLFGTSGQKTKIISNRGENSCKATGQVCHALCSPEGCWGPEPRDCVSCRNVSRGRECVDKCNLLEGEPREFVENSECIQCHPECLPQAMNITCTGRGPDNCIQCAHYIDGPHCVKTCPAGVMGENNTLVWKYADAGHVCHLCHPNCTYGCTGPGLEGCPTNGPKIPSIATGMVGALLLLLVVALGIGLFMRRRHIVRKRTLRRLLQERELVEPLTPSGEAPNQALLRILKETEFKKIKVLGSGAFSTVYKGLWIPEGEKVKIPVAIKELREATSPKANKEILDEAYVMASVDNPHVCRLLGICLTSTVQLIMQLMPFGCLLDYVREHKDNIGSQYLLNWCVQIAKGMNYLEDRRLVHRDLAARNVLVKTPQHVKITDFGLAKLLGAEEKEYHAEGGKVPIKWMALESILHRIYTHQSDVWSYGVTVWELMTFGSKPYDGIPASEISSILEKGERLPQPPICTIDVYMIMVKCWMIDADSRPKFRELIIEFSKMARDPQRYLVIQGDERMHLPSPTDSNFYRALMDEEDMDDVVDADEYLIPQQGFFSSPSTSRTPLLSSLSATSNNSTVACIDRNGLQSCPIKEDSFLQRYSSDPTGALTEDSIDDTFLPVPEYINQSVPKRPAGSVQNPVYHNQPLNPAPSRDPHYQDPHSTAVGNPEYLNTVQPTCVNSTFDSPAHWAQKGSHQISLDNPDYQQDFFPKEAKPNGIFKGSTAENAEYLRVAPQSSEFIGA

`Cc1cc(C(=O)Nc2nc3cccc(Cl)c3n2[C@@H]2CCCCN(C(=O)/C=C/CN(C)C)C2)ccn1` showed an IC50 (EGFR L833V) of 246 nM, an IC50 (EGFR Ex19del/T790M/L792H) of 37.4 nM and an IC50 (EGFR L858R/T790M/L718Q) of 1000 nM. The IC50 (EGFR S768I/V769L) was 292 nM, the IC50 (EGFR G724S T790M) was 242 nM and the IC50 (EGFR Ex19del T790M C797S) was 7210 nM. It also gave an IC50 (EGFR L858R/L718V) of 335 nM, an IC50 (EGFR V774M) of 153 nM and an IC50 (EGFR S768I/T790M) of 25.6 nM. It also gave an IC50 (EGFR S768I V774M) of 124 nM, an IC50 (EGFR L858R T790M V843I) of 32.4 nM and an IC50 (EGFR L858R/V834L) of 14.6 nM. For the same compound, the IC50 (EGFR Ex19del/L792H) was 56.7 nM, the IC50 (EGFR S768I) was 514 nM and the IC50 (EGFR R776H) was 46.7 nM. For the same compound, the IC50 (EGFR Ex19del/T790M/G724S) was 79.3 nM, the IC50 (EGFR L858R T790M/C797S) was 3430 nM and the IC50 (EGFR L858R/T790M) was 25.4 nM. For the same compound, the IC50 (EGFR Ex19del L718V) was 86.6 nM.

Source: US20260240847A1, “COMPOUNDS WITH ANTI-TUMOR ACTIVITY AGAINST CANCER CELLS BEARING TYROSINE KINASE INHIBITOR RESISTANT EGFR MUTATIONS” (BOARD OF REGENTS, THE UNIVERSITY OF TEXAS SYSTEM, priority 2019, published 2026)
